Reference: publication PMC3503517 (Chembiochem : a European journal of chemical biology, 2011)

Target: T1, human DCTPP1 (Homo sapiens, UniProt Q9H773)
T1 sequence (Q9H773 1-170): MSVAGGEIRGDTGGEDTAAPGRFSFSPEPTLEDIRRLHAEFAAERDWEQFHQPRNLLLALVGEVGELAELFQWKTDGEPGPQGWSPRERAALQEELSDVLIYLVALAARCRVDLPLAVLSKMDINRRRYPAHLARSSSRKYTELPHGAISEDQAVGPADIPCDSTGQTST
Format: biochemical
Settings: read-out: Ki ± SE

With CC(C)[C@]12O[C@H]1[C@@H]1O[C@]13[C@]1(O[C@H]1CC1C4=C(CC[C@@]13C)C(=O)OC4)[C@H]2O (stereo partly drawn) [compound 7, 14-α-triptolide] the Ki was 194 ± 28 µM.
